Measured values taken from patent publication US20140256666A1, “ANTIBIOTIC CONJUGATES WITH NONSTEROIDAL ANTI-INFLAMMATORY DRUGS” (Allergan, Inc., priority 2013, published 2014).

Test system: human recombinant carboxylesterases
Assay: In vitro metabolic stability (rate of metabolite formation) in human recombinant carboxylesterases
Assay type: in vitro ADME
Conditions: 1 μM test compound, 0.1 mg/mL human recombinant carboxylesterase mixture, pH 6.0, 37° C.
Procedure: All metabolic stability experiments were performed in triplicate in 96-well plate format.
Internal standards were used to compensate for variability from sample processing, chromatographic elution, mass spectrometer response and ion suppression by matrix components.

7-[1-({[({1-[(4-chlorophenyl)carbonyl]-5-methoxy-2-methyl-1H-inden-3-yl}acetyl)oxy]methoxy}carbonyl)octahydro-6H-pyrrolo[3,4-b]pyridin-6-yl]-1-cyclopropyl-6-fluoro-8-methoxy-4-oxo-1,4-dihydroquinoline-3-carboxylic acid [Compound 62]
Rate of formation Metabolite 1 (Indomethacin) (metabolite Indomethacin): 512 ± 48 nM/min/mg
Rate of formation Metabolite 2 (Moxifloxacin) (metabolite Moxifloxacin): 588 ± 56 nM/min/mg
